From ChEMBL document CHEMBL1938272 (Bioorg Med Chem, 2012)

Sequences of proteins named here, by UniProt entry; tags and fusion partners are left off.
UniProt Q64669, whole entry: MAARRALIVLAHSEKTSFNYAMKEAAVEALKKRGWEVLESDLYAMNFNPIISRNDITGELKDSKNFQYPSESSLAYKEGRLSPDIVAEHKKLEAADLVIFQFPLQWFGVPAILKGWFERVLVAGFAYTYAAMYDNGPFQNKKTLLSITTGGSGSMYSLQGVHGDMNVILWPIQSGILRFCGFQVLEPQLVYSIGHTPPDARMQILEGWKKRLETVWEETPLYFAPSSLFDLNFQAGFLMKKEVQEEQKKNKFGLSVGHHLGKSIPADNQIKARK

Columns and labels:
[1] = biological target: NAD(P)H dehydrogenase [quinone] 1 (Mus musculus) (UniProt Q64669); experiment: Induction of QR1 activity in mouse TAOc1 mutant Hepa cells using MTT as substrate assessed as induction ratio by spectrophotometry relative to control; format: cell-based
[2] = biological target: NAD(P)H dehydrogenase [quinone] 1 (Mus musculus) (UniProt Q64669); experiment: Induction of QR1 activity in mouse BPrc1 cells using MTT as substrate assessed as induction ratio by spectrophotometry relative to control; format: cell-based
[3] = Ratio of trans-resveratrol IC50 to compound IC50 for NF-kappaB

| SMILES | Ratio [1] | Ratio [2] | Ratio IC50 [3] |
| --- | --- | --- | --- |
| Clc1ccc(-c2nsc(-c3ccc(Cl)cc3Cl)n2)c(Cl)c1 | 1.2 | 1.4 | – |
| Fc1ccccc1-c1nsc(-c2ccccc2F)n1 | 1 | 1.7 | – |
| FC(F)(F)c1ccc(-c2nsc(-c3ccc(C(F)(F)F)cc3)n2)cc1 | 1.2 | 0.8 | – |
| Ic1ccccc1-c1nsc(-c2ccccc2I)n1 | 4 | 3.9 | – |
| Brc1ccccc1-c1nsc(-c2ccccc2Br)n1 | 1.6 | 0.5 | – |
| Brc1ccc(-c2nsc(-c3ccc(Br)cc3)n2)cc1 | 1.1 | 0.9 | – |
| Clc1ccc(Cl)c(-c2nsc(-c3cc(Cl)ccc3Cl)n2)c1 | 2.2 | 2.4 | – |
| Cc1cc(Br)ccc1-c1nsc(-c2ccc(Br)cc2C)n1 | 1.7 | 1.2 | – |
| Cc1cccc(-c2nsc(-c3cccc(C)c3)n2)c1 | 0.8 | 0.6 | 1 |
| FC(F)(F)c1ccccc1-c1nsc(-c2ccccc2C(F)(F)F)n1 | 0.8 | 0.7 | – |
| c1ccc(-c2nsc(-c3ccccc3)n2)cc1 | 2.2 | 2 | – |
| Fc1ccc(-c2nsc(-c3ccc(F)cc3)n2)cc1 | 1.1 | 0.6 | – |
| Clc1ccc(-c2nsc(-c3ccc(Cl)cc3)n2)cc1 | 1 | 0.7 | – |
| c1ccc2cc(-c3nsc(-c4ccc5ccccc5c4)n3)ccc2c1 | 0.9 | 0.9 | – |
| Oc1cccc(-c2nsc(-c3cccc(O)c3)n2)c1 | 1.2 | 1.4 | – |
| Clc1ccccc1-c1nsc(-c2ccccc2Cl)n1 | 2 | 2.8 | – |
| Fc1cccc(-c2nsc(-c3cccc(F)c3)n2)c1 | 1.4 | 0.9 | – |
